Test results: PubChem BioAssay AID574 (The Scripps Research Institute Molecular Screening Center, 2007)
The list shows a part of the results, in another mix than the full data. Activity calls are given as the source filed them.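 The calls were made as follows: active = activation above a set limit, the screen-wide mean activation plus 3 SD (cut at about 8.5% in these data); inactive = the rest.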

Protein sequences, listed by entry. Tags and fused reporters are not part of them.
UniProt P28566, whole entry: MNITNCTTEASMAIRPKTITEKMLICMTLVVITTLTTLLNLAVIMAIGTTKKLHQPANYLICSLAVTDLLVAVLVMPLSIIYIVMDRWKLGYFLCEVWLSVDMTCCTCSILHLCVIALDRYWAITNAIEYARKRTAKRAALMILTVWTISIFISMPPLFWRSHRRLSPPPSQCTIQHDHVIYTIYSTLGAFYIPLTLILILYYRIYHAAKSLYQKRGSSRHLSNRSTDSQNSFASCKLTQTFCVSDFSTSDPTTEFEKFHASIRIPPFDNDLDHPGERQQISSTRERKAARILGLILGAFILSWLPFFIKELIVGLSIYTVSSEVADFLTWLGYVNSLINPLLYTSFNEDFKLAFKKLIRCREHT

Each molecule was assayed against 5-hydroxytryptamine receptor 1E (Homo sapiens) (UniProt P28566) (assay: 5-HT1E receptor agonists, primary screen, cell-based, HTS (AID 574;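 also: 100% = positive control agonist at 1 µM giving full maximal response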)). Settings: CHO 5-HT1E Ga15 NFAT-bla reporter, FRET; at 6 µM; active compounds read high; 0% DMSO wells, 100% control agonist wells.

For CP(=O)(Nc1ccc2c(c1)OCCO2)Oc1ccccc1 (stereo not drawn), which activation is on record?
Its activation is inactive: 0.6%.

How did the activation turn out when Cc1ccccc1NP(C)(=O)Nc1ccccc1C was run?
The activation was inactive: -0.3%.

For CCOP(C)(=S)SCC(=O)NC(C)(CC)C(=O)O (stereo not drawn), which activation is on record?
The activation was inactive: -0.6%.

How did the activation turn out when CN(C)CCOC(=O)C(O)(c1ccccc1)C1CCCCC1 (stereo not drawn) was run?
Its activation is inactive: -0.1%.

With CP(=O)(Nc1ccccc1F)Oc1ccccc1 (stereo not drawn) as the molecule, how does the activation read?
The activation was inactive: -1.2%.

With CP(=O)(Nc1ccccn1)Oc1ccccc1 (stereo not drawn) as the molecule, how does the activation read?
The activation was inactive: -0.6%.

For Cc1nc2ccc3ccccc3c2o1.O=[N+]([O-])c1cc([N+](=O)[O-])c(O)c([N+](=O)[O-])c1, which activation is on record?
The activation was inactive: -0.1%.

Which activation does the source give for COc1ccccc1OP(C)(=O)Nc1ccc(C)c(C)c1 (stereo not drawn) here?
Its activation is inactive: 3%.

With CCN(CC)CC(O)COC(=O)C(O)(c1ccccc1)C1CCCCC1 (stereo not drawn) as the molecule, how does the activation read?
Its activation is inactive: 0%.

CP(=O)(Oc1ccccc1)N1CCOC1=O (stereo not drawn) was tested. Which activation did it give?
The activation was inactive: -0.4%.

COc1ccccc1OP(C)(=O)Nc1c(C)n(C)n(-c2ccccc2)c1=O (stereo not drawn) was tested. Which activation did it give?
The activation was inactive: -0.8%.

With CCOP(C)(=S)SCC(=O)NC(C)C(=O)O (stereo not drawn) as the molecule, how does the activation read?
Its activation is inactive: 0.7%.

For CP(=O)(NC(=O)Nc1ccccc1)Oc1ccccc1 (stereo not drawn), which activation is on record?
Its activation is inactive: -0.9%.

How did the activation turn out when CP(=S)(Nn1cnnc1)Oc1ccccc1 (stereo not drawn) was run?
The activation was inactive: 0.3%.

How did the activation turn out when COc1ccccc1OP(C)(=O)Nc1ccc(C)cc1 (stereo not drawn) was run?
The activation was inactive: 0%.

Cc1ccc(NP(C)(=O)Oc2ccccc2)c(C)c1 (stereo not drawn) was tested. Which activation did it give?
Its activation is inactive: -0.3%.

With Cc1ccc(C)c(NP(C)(=O)Oc2ccccc2)c1 (stereo not drawn) as the molecule, how does the activation read?
Its activation is inactive: 0.6%.

For Cc1nc2ccc3ccccc3c2s1.O=[N+]([O-])c1cc([N+](=O)[O-])c(O)c([N+](=O)[O-])c1, which activation is on record?
The activation was inactive: -0.3%.
